Data taken from publication PMC3267002 (Bioorganic & medicinal chemistry, 2011).

Sequences of proteins named here, by UniProt entry; tags and fusion partners are left off. Residues count along the entry.
UniProt P28335, 33-458: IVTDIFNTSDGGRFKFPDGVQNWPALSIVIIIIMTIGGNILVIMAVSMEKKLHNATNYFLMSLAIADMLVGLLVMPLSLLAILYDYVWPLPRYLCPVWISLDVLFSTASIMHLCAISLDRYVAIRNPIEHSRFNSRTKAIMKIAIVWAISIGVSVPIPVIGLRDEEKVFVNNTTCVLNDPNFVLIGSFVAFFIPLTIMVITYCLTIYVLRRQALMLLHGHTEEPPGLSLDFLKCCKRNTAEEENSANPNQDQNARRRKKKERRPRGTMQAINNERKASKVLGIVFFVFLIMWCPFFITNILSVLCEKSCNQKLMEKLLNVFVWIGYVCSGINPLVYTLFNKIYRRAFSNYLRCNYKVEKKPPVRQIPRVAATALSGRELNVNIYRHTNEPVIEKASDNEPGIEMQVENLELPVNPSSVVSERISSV

Target: 5HT2C receptor (Homo sapiens, UniProt P28335)
Assay: NIMH-PDSP radioligand binding, 5HT2C

Q: Which Ki does the source give for `OC1(c2ccc(Cl)cc2)CCN(CCCSc2ccc(F)cc2)CC1` [Compound 6, 4-(4-chlorophenyl)-1-(3-((4-fluorophenyl)thio)propyl)piperidin-4-ol] here?
A: The Ki was over 10 µM.
